# Values of other authors as cited in patent US5447869A, “Method of detecting bitter or odorous substances and apparatus therefor” (Sogo Pharmaceutical Company Limited, priority 1987, dated 1995).
# Like-named read-outs stand apart in the source and are kept apart here.
# System: tadpole
# Conditions: cited from earlier work
structure (smiles),measurement,setting,value
CCCO [1-propanol],Potency,"Table 3, tadpole, intensity of the anesthetic",9.43
same,Potency,"Table 6, concentration ratio of aqueous solution, methanol as 1.00",9.43
